Measurements published in ChEMBL document CHEMBL1126862, “Substituted 3-phenylpiperidines: new centrally acting dopamine autoreceptor antagonists” (J Med Chem, 1993).

Sequences of proteins named here, by UniProt entry; tags and fusion partners are left off.
UniProt P35462, whole entry: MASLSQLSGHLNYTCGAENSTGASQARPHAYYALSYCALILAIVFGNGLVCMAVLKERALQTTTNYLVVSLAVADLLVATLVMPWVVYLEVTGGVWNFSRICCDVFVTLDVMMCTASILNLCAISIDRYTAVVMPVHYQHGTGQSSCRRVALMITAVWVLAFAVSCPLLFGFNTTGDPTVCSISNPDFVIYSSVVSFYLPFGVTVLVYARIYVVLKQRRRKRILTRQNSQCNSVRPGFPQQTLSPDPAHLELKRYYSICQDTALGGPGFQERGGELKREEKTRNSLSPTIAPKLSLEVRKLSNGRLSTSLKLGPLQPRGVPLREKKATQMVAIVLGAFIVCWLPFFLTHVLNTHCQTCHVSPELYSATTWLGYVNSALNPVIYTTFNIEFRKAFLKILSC

Biological target: D(3) dopamine receptor (Homo sapiens, UniProt P35462)

Structure (SMILES)	Ki [nM]
CCCN1CCCC(c2cccc(O)c2)C1 (single isomer, unassigned; (+))	217
CCCN1CCCC(c2cccc(O)c2)C1 (single isomer, unassigned; (-))	132
